For this series, the system named is human skin tissue. Kind of series: Penetration rate of AI compound in AI-helper composition through human skin in vitro, modified Franz cells. The settings on record: for Skin penetration rate of melatonin: melatonin 1% w/v, 20° C.

Four molecules from US9962369B2, “Methods and compositions for transdermal delivery” (SPRAYABLE HOLDINGS, INC., priority 2014, dated 2018) can be followed below.

Regarding `CC1=C(/C=C/C(C)=C/C=C/C(C)=C/C=C/C=C(C)/C=C/C=C(C)/C=C/C2=C(C)C(=O)[C@@H](O)CC2(C)C)C(C)(C)C[C@H](O)C1=O` [Astaxanthin], the “Skin penetration rate of AI compound” value is, setting by setting: (with D-tryptophan isopropyl ester hydrochloride 6 % w/v in water, AI compound 0.5 % w/v, 25 °C) 13.131 ± 2.102 μg/cm^2/h; (with L-tryptophan isopropyl ester hydrochloride 6 % w/v in water, AI compound 0.5 % w/v, 25 °C) 13.341 ± 2.762 μg/cm^2/h.

As to `COc1ccc2[nH]cc(CCNC(C)=O)c2c1` [Melatonin], the “Skin penetration rate of melatonin” value is, setting by setting: (Tryptophan isopropyl ester•HA 6% w/v, HA = 1/3H3PO4, water) 15.321 ± 1.497 μg/cm^2/h; (Tryptophan isopropyl ester•HA 6% w/v, HA = Acetic acid, water) 15.456 ± 1.712 μg/cm^2/h; (Tyrosine isopropyl ester•HA 6% w/v, HA = HCl, water) 16.313 ± 1.753 μg/cm^2/h. The “Skin penetration rate of AI compound” value worked out at 15.457 ± 1.435 μg/cm^2/h (with D-tryptophan butyl ester hydrochloride 6 % w/v in water, AI compound 1 % w/v, 20 °C) and 16.310 ± 1.236 μg/cm^2/h (with L-tryptophan ethyl ester hydrochloride 6 % w/v in water, AI compound 1 % w/v, 20 °C).

Consider `Oc1ccc(C=Cc2cc(O)cc(O)c2)cc1` [Resveratrol], for which the “Skin penetration rate of AI compound” value (with D-isoleucine isopropyl ester hydrochloride 6 % w/v in water, AI compound 0.5 % w/v, 25 °C) is 16.318 ± 2.762 μg/cm^2/h.

`Cc1ncc(CO)c(CO)c1O.Cl` [Vitamin B6]: the “Skin penetration rate of Al compound” value (2-(Diethylamino)ethyl 2-(4-isobutylphenyl)propionate hydrochloride 6% w/v, Al compound 0.5% w/v, water, 25 °C) is on record as 15.251 ± 2.015 μg/cm^2/h. The “Skin penetration rate of AI compound” value runs as follows: (with D-leucine isopropyl ester hydrochloride 6 % w/v in water, AI compound 0.5 % w/v, 25 °C) 13.138 ± 2.131 μg/cm^2/h; (with L-leucine isopropyl ester hydrochloride 6 % w/v in water, AI compound 0.5 % w/v, 25 °C) 13.252 ± 2.123 μg/cm^2/h.
